Results on 1 substance are retold here after PMC7603008 (Materials, 2020).

The subject of this test is hDPCs transplanted into immunocompromised mice. Briefly: Ex vivo subcutaneous transplantation of hDPCs with HA/TCP into immunocompromised mice. The test is classed as in vivo. The following applies: 12 weeks. The method, then:
Human root segments (<5 mm in thickness) were prepared from extracted human teeth after pulp tissues were removed according to our previously reported protocol. Human DPCs (2 × 10^6) were mixed with hydroxy apatite/tricalcium phosphate (HA/TCP) ceramic powder (Zimmer, Warsaw, IN, USA) alone or with Cpne7-DP (10 µg) in an 0.5% fibrin gel and then transplanted subcutaneously into immunocompromised mice (NIH-bg-nu-xid; Harlan Laboratories, Indianapolis, IN, USA) for 6 or 12 weeks. Dentin/pulp-like tissue formation in the emptied root canal space was evaluated after mixing hDPCs (2 × 10^6) with Cpne7-DP (10 µg) in a 0.5% fibrin gel and inserting the mixture into emptied root canal space of the human root segments for 6 weeks. Harvested samples were fixed in 4% in paraformaldehyde, decalcified in 10% EDTA (pH 7.4), embedded in paraffin, and stained with hematoxylin and eosin (H&E) (Vector Laboratory, Burlingame, CA, USA), Masson’s Trichrome Stain (Polysciences, Warrington, PA, USA), or processed for immunohistochemical analysis. For immunohistochemistry, the sections were incubated overnight at 4 °C with rabbit polyclonal DSP and BSP produced, as described previously at a dilution of 1:150. Biotin-labeled goat anti-rabbit IgG (Vector Laboratory) was incubated with the sections at room temperature for 30 min, which were then reacted with the avidin-biotin-peroxidase complex (Vector Laboratory). Signals were converted using a diaminobenzidine kit (Vector Laboratory). Nuclei were stained with hematoxylin.
Samples were fixed in 0.1 M cacodylate buffer (pH 7.3) containing 2.5% glutaraldehyde for 30 min and in 0.1 M cacodylate buffer (pH 7.4) containing 1% osmium tetroxide for 1 h. Samples were then rapidly dehydrated through an ethanol gradient. After sputter coating with gold, samples were observed under a scanning electron microscope (S-4700, HITACHI, Tokyo, Japan).

In the case of “rBMP2: recombinant bone morphogenetic protein 2”, where the note is “HA/TCP transplants”, the “BSP immunohistochemical staining of mineralized tissue” value is on record as “strong BSP” and the “DSP immunohistochemical staining of mineralized tissue” value was “much weaker DSP expression”. The “Tissue formed by transplanted hDPCs” value (hDPCs with HA/TCP in 0.5% fibrin gel, subcutaneous in immunocompromised mice, H&E, Cpne7-DP 10 µg) is on record as “typical bone-like structure”.
